Measured values reported in patent US7259188B2, “Methods and pharmaceutical compositions for treatment of anti-estrogen resistant breast cancer using RXR modulators” (priority 1998, dated 2007).

The chains behind the UniProt entries cited, without tags or fusion partners.
UniProt P13631, whole entry, species assumed: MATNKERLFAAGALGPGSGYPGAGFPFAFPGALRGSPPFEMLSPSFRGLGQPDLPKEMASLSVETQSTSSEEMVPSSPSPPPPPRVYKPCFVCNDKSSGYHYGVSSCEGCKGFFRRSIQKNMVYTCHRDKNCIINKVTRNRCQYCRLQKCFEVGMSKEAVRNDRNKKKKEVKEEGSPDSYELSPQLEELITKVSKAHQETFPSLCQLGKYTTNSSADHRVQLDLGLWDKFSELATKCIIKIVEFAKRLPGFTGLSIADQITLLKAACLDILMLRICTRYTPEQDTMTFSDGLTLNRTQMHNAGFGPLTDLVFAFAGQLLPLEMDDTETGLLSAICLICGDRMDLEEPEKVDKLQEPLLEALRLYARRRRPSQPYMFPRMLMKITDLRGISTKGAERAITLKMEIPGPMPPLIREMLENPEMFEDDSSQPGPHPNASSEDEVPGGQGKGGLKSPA
UniProt P10276, whole entry, species assumed: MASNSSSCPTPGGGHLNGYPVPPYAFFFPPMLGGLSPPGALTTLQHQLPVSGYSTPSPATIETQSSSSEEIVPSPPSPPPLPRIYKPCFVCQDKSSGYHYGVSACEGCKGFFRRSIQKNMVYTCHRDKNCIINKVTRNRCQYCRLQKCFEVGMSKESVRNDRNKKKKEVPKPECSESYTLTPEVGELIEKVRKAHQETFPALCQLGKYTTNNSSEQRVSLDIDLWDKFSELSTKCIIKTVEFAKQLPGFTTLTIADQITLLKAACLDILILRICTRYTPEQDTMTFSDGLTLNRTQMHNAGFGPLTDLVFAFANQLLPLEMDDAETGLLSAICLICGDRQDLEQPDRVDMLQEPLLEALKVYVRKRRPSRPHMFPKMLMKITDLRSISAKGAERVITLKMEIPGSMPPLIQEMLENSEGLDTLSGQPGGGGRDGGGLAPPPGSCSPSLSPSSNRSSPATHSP
UniProt P10826, whole entry, species assumed: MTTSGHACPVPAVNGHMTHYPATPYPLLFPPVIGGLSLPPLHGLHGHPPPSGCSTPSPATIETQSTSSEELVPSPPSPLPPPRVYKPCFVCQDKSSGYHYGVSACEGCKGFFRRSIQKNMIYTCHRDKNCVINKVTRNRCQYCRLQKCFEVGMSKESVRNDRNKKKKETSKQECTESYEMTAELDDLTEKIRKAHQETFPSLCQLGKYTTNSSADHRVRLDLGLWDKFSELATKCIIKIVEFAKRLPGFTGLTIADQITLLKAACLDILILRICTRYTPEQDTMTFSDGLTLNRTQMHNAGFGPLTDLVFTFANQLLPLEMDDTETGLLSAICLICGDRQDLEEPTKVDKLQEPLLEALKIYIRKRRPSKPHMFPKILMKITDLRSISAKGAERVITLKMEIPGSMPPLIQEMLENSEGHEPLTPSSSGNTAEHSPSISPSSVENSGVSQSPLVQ

Tests used:
[1] = target: RARγ (Homo sapiens, UniProt P13631); settings: co-transfection assay
[2] = target: RARα (Homo sapiens, UniProt P10276); settings: co-transfection assay
[3] = target: RARβ (Homo sapiens, UniProt P10826); settings: co-transfection assay
[4] = target: T1, RXRγ (UniProt P28705); settings: co-transfection assay
T1 sequence (P28705 1-463): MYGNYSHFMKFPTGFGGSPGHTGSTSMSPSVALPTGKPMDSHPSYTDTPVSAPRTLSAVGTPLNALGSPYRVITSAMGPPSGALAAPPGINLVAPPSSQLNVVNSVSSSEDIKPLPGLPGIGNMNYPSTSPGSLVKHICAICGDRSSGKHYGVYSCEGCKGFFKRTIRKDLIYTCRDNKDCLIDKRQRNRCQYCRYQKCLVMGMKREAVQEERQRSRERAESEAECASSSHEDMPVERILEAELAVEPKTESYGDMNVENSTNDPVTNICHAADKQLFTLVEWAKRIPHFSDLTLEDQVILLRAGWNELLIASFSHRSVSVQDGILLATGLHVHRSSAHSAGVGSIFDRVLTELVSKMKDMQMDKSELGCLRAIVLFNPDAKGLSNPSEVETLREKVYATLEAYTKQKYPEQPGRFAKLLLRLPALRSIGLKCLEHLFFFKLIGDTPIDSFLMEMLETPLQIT

[5] = target: T2, RXRβ (UniProt P28704); format: cell-based
T2 sequence (P28704 1-520): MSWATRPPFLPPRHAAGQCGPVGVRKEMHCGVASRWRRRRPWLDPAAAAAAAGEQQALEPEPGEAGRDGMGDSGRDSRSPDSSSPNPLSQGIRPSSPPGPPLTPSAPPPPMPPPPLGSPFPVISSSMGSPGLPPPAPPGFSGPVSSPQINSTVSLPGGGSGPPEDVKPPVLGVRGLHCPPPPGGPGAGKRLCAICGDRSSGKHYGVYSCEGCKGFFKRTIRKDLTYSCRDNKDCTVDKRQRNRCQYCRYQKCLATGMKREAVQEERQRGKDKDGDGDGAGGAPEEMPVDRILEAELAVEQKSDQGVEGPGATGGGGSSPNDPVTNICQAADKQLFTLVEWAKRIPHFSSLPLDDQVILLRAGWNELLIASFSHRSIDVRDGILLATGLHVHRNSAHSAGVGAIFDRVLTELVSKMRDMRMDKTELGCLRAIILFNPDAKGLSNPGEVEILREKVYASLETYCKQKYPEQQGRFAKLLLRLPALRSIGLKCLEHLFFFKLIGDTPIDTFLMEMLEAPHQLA

Compound `CC1=C(/C=C/C(C)=C\C=C\C(C)=C\C(=O)O)C(C)(C)CCC1` [9-cis-retinoic acid] has an Efficacy [1] of 120%, an Efficacy [2] of 100% and an Efficacy [3] of 82%. It also gave an Efficacy [4] of 140%.
`C=C(c1ccc(C(=O)O)cc1)c1cc2c(cc1C)C(C)(C)CCC2(C)C` [LGD1069] showed an Efficacy [5] of 102%.
